Experimental data: patent US20060173015A1, “Cyclohexyldiamines as selective alpha 1a/1d adrenoreceptor antagonists for the treatment of benign prostatic hypertrophy and lower urinary tract symptoms” (priority 2004, published 2006)

Molecular target: T1, α1a-AR (Homo sapiens, UniProt P35348)
T1 construct: expressed in transfected cells; host or cells: COS-7
T1 sequence (P35348 1-466): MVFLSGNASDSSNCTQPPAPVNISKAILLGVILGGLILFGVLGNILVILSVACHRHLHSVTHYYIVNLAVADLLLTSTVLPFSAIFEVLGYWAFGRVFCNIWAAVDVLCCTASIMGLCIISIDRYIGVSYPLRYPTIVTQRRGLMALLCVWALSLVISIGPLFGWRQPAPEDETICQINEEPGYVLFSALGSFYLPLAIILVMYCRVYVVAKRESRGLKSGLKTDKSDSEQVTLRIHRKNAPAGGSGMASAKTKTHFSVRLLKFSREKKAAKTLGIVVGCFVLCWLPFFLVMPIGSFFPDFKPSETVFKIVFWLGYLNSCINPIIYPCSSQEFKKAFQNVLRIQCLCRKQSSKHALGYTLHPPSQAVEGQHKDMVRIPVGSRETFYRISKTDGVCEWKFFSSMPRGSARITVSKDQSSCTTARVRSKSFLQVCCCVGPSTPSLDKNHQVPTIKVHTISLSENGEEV
Assay: α1-Adrenergic receptor radio-ligand (125I-HEAT) binding assay, α1a subtype
Details: COS-7 cell membranes
Procedure: α1-Adrenergic Receptor Binding Assay: Preparation of COS Cell Membranes
Membranes were prepared from COS-7 cells that had been transfected with one of the three α1-AR subtypes by the following method. COS cells from ten 100 mm tissue culture plates were scraped into 5 mL TE (50 mM Tris-HCl, 5 mM EDTA, pH 7.4). The cell suspension was disrupted with a Brinkman Polytron, setting 8, for 10 sec. The disrupted cells were centrifuged at 1000×g for 10 min at 4° C. Supernatants were centrifuged at 34,500×g for 20 min at 4° C. The membrane pellets were suspended in 2 mL TNE (50 mM Tris-HCl, 5 mM EDTA, 150 mM NaCl, pH7.4). An aliquot of the membrane suspension was stored at −70° C. until use. The protein concentration was determined using the BioRad DC protein assay kit following membrane solubilization with Triton X-100.
Radio-Ligand Binding Assay
Triplicate determinations of radio-ligand binding in the presence of increasing: concentrations of testing compound were made. The reagents were added to 96-well polypropylene plate wells using the Biomek 1000 robot (Beckman Instruments). […] The radioactive content was analyzed in the TopCount microplate scintillation counter (Packard Instruments).

Row | Ki | SMILES
1 | 1.6 nM | COc1ccc(Br)cc1S(=O)(=O)N[C@H]1CC[C@@H](N2CCN(c3ccccc3OC(C)C)CC2)CC1 [Cpd 28, 5-Bromo-N-cis-{4-[4-(2-isopropoxy-phenyl)-piperazin-1-yl]-cyclohexyl}-2-methoxy-benzenesulfonamide]
2 | 10 nM | COc1ccc(Br)cc1S(=O)(=O)N[C@H]1CC[C@H](N2CCN(c3ccccc3OC(C)C)CC2)CC1 [Cpd 56, 5-Bromo-N-trans-{4-[4-(2-isopropoxy-phenyl)-piperazin-1-yl]-cyclohexyl}-2-methoxy-benzenesulfonamide]
